The results in this text go back to patent US10858410B2, “Glycosylated peptides with pseudoproline residues and having enhanced half-lives and ability to cross the blood brain barrier” (ARIZONA BOARD OF REGENTS ON BEHALF OF THE UNIVERSITY OF …, priority 2015, dated 2020).

For this test, the target named is T1, human PAC1 receptors (Homo sapiens, UniProt P41586).
T1 construct: host or cells: CHO (clonal line PAC1-CHO)
T1 sequence (P41586 21-468): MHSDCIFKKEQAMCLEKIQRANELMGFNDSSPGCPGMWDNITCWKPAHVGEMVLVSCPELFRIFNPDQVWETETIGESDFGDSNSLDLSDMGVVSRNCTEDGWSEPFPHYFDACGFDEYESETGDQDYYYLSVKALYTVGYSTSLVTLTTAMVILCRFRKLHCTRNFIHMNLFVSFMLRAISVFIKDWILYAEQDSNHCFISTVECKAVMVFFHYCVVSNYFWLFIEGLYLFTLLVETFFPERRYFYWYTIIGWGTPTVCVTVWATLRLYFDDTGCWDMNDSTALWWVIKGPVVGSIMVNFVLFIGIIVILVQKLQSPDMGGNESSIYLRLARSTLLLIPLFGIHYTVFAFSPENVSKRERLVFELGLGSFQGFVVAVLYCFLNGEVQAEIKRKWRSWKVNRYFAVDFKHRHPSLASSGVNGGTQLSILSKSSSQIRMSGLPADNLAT
As to the kind of experiment: FLIPR calcium flux, agonist mode, PAC1-CHO cells. The test is classed as cell-based. On the technique in general: A change in cytosolic calcium serves as a functional read-out for many receptors and channels.

The structures appear in SMILES notation.

Usually EC50 stands for the concentration that produces a half-maximal response. The term Emax denotes the maximal effect, on the per cent scale that the assay sets. On to `CC[C@H](C)[C@H](NC(=O)CNC(=O)[C@H](CC(=O)O)NC(=O)[C@H](CO)NC(=O)[C@@H](N)Cc1c[nH]cn1)C(=O)N[C@@H](Cc1ccccc1)C(=O)N[C@H](C(=O)N[C@@H](CC(=O)O)C(=O)N[C@@H](CO)C(=O)N[C@@H](Cc1ccc(O)cc1)C(=O)N[C@@H](CO)C(=O)N[C@@H](CCCNC(=N)N)C(=O)N[C@@H](Cc1ccc(O)cc1)C(=O)N[C@@H](CCCNC(=N)N)C(=O)N[C@@H](CCCCN)C(=O)N[C@@H](CCC(N)=O)C(=O)N[C@@H](CCSC)C(=O)N[C@@H](C)C(=O)N[C@H](C(=O)N[C@@H](CCCCN)C(=O)N[C@@H](CCCCN)C(=O)N[C@@H](Cc1ccc(O)cc1)C(=O)N[C@@H](CC(C)C)C(=O)N[C@@H](C)C(=O)N[C@@H](C)C(=O)N[C@H](C(=O)N[C@@H](CO[C@@H]1O[C@H](CO)[C@@H](O)[C@H](O)[C@H]1O)C(N)=O)C(C)C)C(C)C)[C@@H](C)O` [PACAP1-27-S-G], for which the EC50 amounted to 5.68 ± 2.3 nM and the Emax was determined as 102 ± 1.6%.
